Test [1] addresses mammalian mononucleosomes (HEK293T, MNase digestion) read out by the histone H3 peptide H3K56me0 (human) (UniProt P68431). The test is described as follows: MBP-SSX1 78aa pull-down of HEK293T mononucleosomes, targeted quantitative histone mass spectrometry; replicate MM05_E01.
Test [2] addresses mammalian mononucleosomes (HEK293T, MNase digestion) read out by the histone H3 peptide H3K79me1 (human) (UniProt P68431). The test is described as above.
Test [3] concerns the target mammalian mononucleosomes (HEK293T, MNase digestion) read out by the histone H3 peptide H3K79me2 (human) (UniProt P68431). The test is described as above.
Test [4] addresses H4(4to17)K8ac1K12ac1me0 histone form in mammalian mononucleosomes from HEK-293T cells (mammalian (HEK-293T cells)) (UniProt P62805). The test is described as follows: MBP-SSX1 78aa pull-down of HEK293T mononucleosomes, targeted histone MS, sample MM04_D01.
Test [5] addresses H4(4to17)ac0me0 histone form in mammalian mononucleosomes from HEK-293T cells (mammalian (HEK-293T cells)) (UniProt P62805). Described as above.
The target in test [6] is H4(20to23)K20me0 histone form in mammalian mononucleosomes from HEK-293T cells (mammalian (HEK-293T cells)) (UniProt P62805). The description is as above.
The target in test [7] is H4(4to17)K5ac1K16ac1me0 histone form in mammalian mononucleosomes from HEK-293T cells (mammalian (HEK-293T cells)) (UniProt P62805). Described as above.
In test [8] the target is H2A(12to17)ac0 histone form in mammalian mononucleosomes from HEK-293T cells (mammalian (HEK-293T cells)) (UniProt P0C0S8). Described as above.
In test [9] the target is H2A(4to11)ac0 histone form in mammalian mononucleosomes from HEK-293T cells (mammalian (HEK-293T cells)) (UniProt P0C0S8). Described as above.
Test [10] addresses H3K9me2S10ph1K14ac0 histone form in mammalian mononucleosomes from HEK-293T cells (mammalian (HEK-293T cells)) (UniProt P68431). Described as above.
Test [11] concerns the target H3K4me2 histone form in mammalian mononucleosomes from HEK-293T cells (mammalian (HEK-293T cells)) (UniProt P68431). The test is described as above.
The target in test [12] is H4(20to23)K20me2 histone form in mammalian mononucleosomes from HEK-293T cells (mammalian (HEK-293T cells)) (UniProt P62805). The description is as above.
In test [13] the target is H4(20to23)K20me1 histone form in mammalian mononucleosomes from HEK-293T cells (mammalian (HEK-293T cells)) (UniProt P62805). The description is as above.
For test [14], the target named is H4(4to17)K5ac1K8ac1K16ac1me0 histone form in mammalian mononucleosomes from HEK-293T cells (mammalian (HEK-293T cells)) (UniProt P62805). The description is as above.
Test [15] deals with H2A(4to11)K9ac1 histone form in mammalian mononucleosomes from HEK-293T cells (mammalian (HEK-293T cells)) (UniProt P0C0S8). The test is described as above.
The target in test [16] is H3K4me1 histone form in mammalian mononucleosomes from HEK-293T cells (mammalian (HEK-293T cells)) (UniProt P68431). The test is described as above.
The target in test [17] is H4(4to17)K5ac1K8ac1me0 histone form in mammalian mononucleosomes from HEK-293T cells (mammalian (HEK-293T cells)) (UniProt P62805). Described as above.
Test [18] addresses HEK-293T mononucleosomes with histone H3K9me1S10ph1K14ac1 (mammalian (HEK-293T cells)) (UniProt P68431). The test is described as follows: MBP-SSX1 78aa pull-down of HEK293T mononucleosomes, targeted quantitative histone MS, replicate 1.
The target of test [19] is HEK-293T mononucleosomes with histone H4(20to23)K20me3 (mammalian (HEK-293T cells)) (UniProt P62805). Described as above.
Test [20] has as its target mammalian mononucleosomes (HEK293T, MNase) carrying histone H3 K79me2 (mammalian (HEK293T cells)) (UniProt P68431). The test is described as follows: MBP-SSX1 78aa pull-down of HEK293T mononucleosomes, targeted quantitative histone MS; replicate 1 (MM04_D01).
In test [21] the target is mammalian mononucleosomes (HEK293T, MNase) carrying histone H3 K56me0 (mammalian (HEK293T cells)) (UniProt P68431). Described as above.
The target in test [22] is mammalian mononucleosomes (HEK293T, MNase) carrying histone H3 K79me1 (mammalian (HEK293T cells)) (UniProt P68431). Described as above.

With “MBP-SSX1 (78aa) (from UniProt P0AEX9 27-392)”, the log2 histone peptide abundance (light/heavy) in the pull-down, normalised to the average of the pull-down input controls in test [1] came out at 0.182 log2 ratio; in test [2] it was 0.203 log2 ratio; in [3], 0.083 log2 ratio. Besides, the log2 normalized (Light/Heavy) intensity ratio in test [4] was -0.198 log2; in [5], -0.613 log2; in [6], 0.017 log2; in test [7] it was 0.226 log2; in test [8], 0.201 log2; in test [9] it was -0.026 log2. Further, the log2 normalized (Light/Heavy) intensity ratio was -0.683 log2 in [10]; 0.778 log2 in [11]; -0.414 log2 in test [12]; -0.427 log2 in test [13]; 0.474 log2 in [14]; -0.254 log2 in test [15]. The log2 normalized (Light/Heavy) intensity ratio is 0.74 log2 in test [16] and 0.107 log2 in test [17]. In addition, the log2 (Light/Heavy) ratio normalized to average of pull down input controls is 0.29 log2 in test [18] and -0.295 log2 in test [19]. Also, the log2 normalized (Light/Heavy) intensity ratio of the histone peptide in [20] came to 0.826 log2; in test [21], 0.856 log2; in test [22], 0.954 log2.

(Values after patent publication US20250283871A1, “COMPOSITIONS AND METHODS FOR MODULATING THE INTERACTION BETWEEN SS18-SSX FUSION ONCOPROTEIN AND NUCLEOSOMES” (Dana-Farber Cancer Institute, Inc., priority 2020, published 2025).)
